# Compound activity as filed in PubChem BioAssay.
# Hits are enriched below; roughly 2.8% of the tested compounds scored in any of these assays.
# PglD inh: PglD (C. jejuni) enzyme inhibition. purified PglD enzyme, DTNB colorimetric CoA detection. inhibition, % at 12.5 µM. actives 0.098% (n = 360,000). AID 602405; in the data active means inhibition above about 16%, passing the limit was not always enough
# UUG fidelity: yeast start codon fidelity modulation | S. cerevisiae UUG-firefly luciferase reporter, luminescence/redox ratio | activity score, % at 18.7 µM | 0.13% of 350,000 active | AID 602363;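 active means replicate mean at a twofold rise or more, about +100% in these data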;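 further: firefly luciferase made from a UUG start codon reports start codon fidelity; reporter light over untreated wells divided by growth signal over untreated wells; some hits fall short of that in this replicate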
# PGC1a acetyl inh: PGC1a acetylation modulation, inhibitor mode; actives 0.17% (n = 350,000); U2OS PGC1a acetylation, AlphaScreen anti-acetyl-lysine; with virally co-expressed GCN5 acetyltransferase; inhibition, % at 15.6 µM;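 active means every replicate shows inhibition of at least 40%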;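 further: 0% = neutral control wells and 100% = positive control wells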
# Statin myotox sup: suppressors of simvastatin-induced myotoxicity in C2C12 myotubes; ATP luminescence, 48 h; scaled: DMSO 0, geranylgeraniol control 100; rescue of ATP level, % at 7.49 µM; actives 0.78% (n = 330,000); AID 602340;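 active means mean ATP rescue above about 67%, or every replicate alone reaching that limit, limit read from the data, passing the limit was not always enough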;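 further: myotubes were challenged with 10 µM simvastatin during compound exposure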
# E-sel inducer: induces E-selectin expression in human endothelial cells; P16581; HUVEC E-selectin immunofluorescence imaging; normalized: neutral wells 0, TNF-alpha wells 100; activation, % at 7.58 µM; actives 0.37% (n = 260,000);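 active means mean E-selectin-positive cell signal at least 10% of the positive control, reached in at least 60% of replicates, without over 20% cell loss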
#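 Assay system: HUVEC primary endothelial cells. Input: 3,000 HUVEC seeded per well. Doses: one compound dose added by pin transfer. Read-out basis: % PE-positive cells. Benchmarks: TNF-alpha high, DMSO low. Detection: immunofluorescence imaging. Buffer or medium: EGM-2, gelatin.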
# esBAF inh: blocks esBAF chromatin remodeling in mouse ES cells. Bmi1-luciferase knock-in reporter, 24 h; 100% = twice the neutral-well signal. reporter increase, % at 12.5 µM. actives 2% (n = 350,000); in the data active means activation above about 40%;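 further: 0% = median of the plate's neutral control wells and 100% = double that signal; a rise in the Bmi1 reporter signal indicates esBAF inhibition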
# Numbers without * were called inactive; / = not tested or not shown.
# The first five compounds (preview)
# Screens in order – PglD inh | UUG fidelity | PGC1a acetyl inh | Statin myotox sup | E-sel inducer | esBAF inh
- O=C(C[C@@H]1CC[C@H]2[C@@H](COC[C@H](O)CN2Cc2ccc(Oc3ccccc3)cc2)O1)N1CCCCC1
    -0.7 | 8.2 | -11.2 | 35.3 | 0.1 | 7.2
- O=C(C[C@H]1CC[C@@H]2[C@H](COC[C@H](O)CN2C(=O)c2cc(Cl)cc(Cl)c2)O1)N1CCc2ccccc2C1
    0.7 | 4.9 | -2.3 | 11.5 | -0.1 | -1.5
- O=C(C[C@H]1CC[C@@H]2[C@H](COC[C@@H](O)CN2Cc2ccc(Oc3ccccc3)cc2)O1)N1CCCCC1
    -1.8 | 9.9 | -3.2 | 71.0* | 0.0 | -2.5
- CN1C(=O)c2cc(NS(=O)(=O)c3ccc(Cl)cc3)ccc2OC[C@@H]2O[C@H](CC(=O)N3CCc4ccccc4C3)CC[C@H]21
    0.4 | 10.0 | -17.8 | 109.1* | -0.1 | 9.5
- O=C(C[C@@H]1CC[C@@H]2[C@H](COC[C@H](O)CN2C(=O)c2cc(Cl)cc(Cl)c2)O1)N1CCc2ccccc2C1
    0.3 | / | -9.5 | 90.9* | 0.2 | 1.0

# The listing, repeating the preview:
# Screens in order – PglD inh | UUG fidelity | PGC1a acetyl inh | Statin myotox sup | E-sel inducer | esBAF inh
- O=C(C[C@@H]1CC[C@H]2[C@@H](COC[C@H](O)CN2Cc2ccc(Oc3ccccc3)cc2)O1)N1CCCCC1
    -0.7 | 8.2 | -11.2 | 35.3 | 0.1 | 7.2
- O=C(C[C@H]1CC[C@@H]2[C@H](COC[C@H](O)CN2C(=O)c2cc(Cl)cc(Cl)c2)O1)N1CCc2ccccc2C1
    0.7 | 4.9 | -2.3 | 11.5 | -0.1 | -1.5
- O=C(C[C@H]1CC[C@@H]2[C@H](COC[C@@H](O)CN2Cc2ccc(Oc3ccccc3)cc2)O1)N1CCCCC1
    -1.8 | 9.9 | -3.2 | 71.0* | 0.0 | -2.5
- CN1C(=O)c2cc(NS(=O)(=O)c3ccc(Cl)cc3)ccc2OC[C@@H]2O[C@H](CC(=O)N3CCc4ccccc4C3)CC[C@H]21
    0.4 | 10.0 | -17.8 | 109.1* | -0.1 | 9.5
- O=C(C[C@@H]1CC[C@@H]2[C@H](COC[C@H](O)CN2C(=O)c2cc(Cl)cc(Cl)c2)O1)N1CCc2ccccc2C1
    0.3 | / | -9.5 | 90.9* | 0.2 | 1.0
- O=C(C[C@H]1CC[C@H]2[C@@H](COC[C@@H](O)CN2C(=O)c2cc(Cl)cc(Cl)c2)O1)N1CCc2ccccc2C1
    1.2 | / | -63.3 | 81.3* | -0.2 | -5.0
- CCCC(=O)Nc1ccc2c(c1)OC[C@@H](C)N(C(=O)c1ccccc1F)C[C@H](C)[C@@H](OC)CN(C)C2=O
    / | / | 2.6 | -1.5 | -0.1 | 3.5
- C[C@@H]1CN([C@H](C)CO)S(=O)(=O)c2ccc(C#C[C@@H](C)O)cc2O[C@H]1CN(C)C(=O)Cc1ccccn1
    15.7 | 2.8 | 4.1 | / | 0.3 | -2.0
- O=C(Cc1ccncc1)NCC[C@H]1CC[C@H](NC(=O)C2CCC2)[C@@H](CO)O1
    2.7 | / | 10.2 | -5.5 | 0.1 | 0.4
- O=C(C[C@@H]1CC[C@@H]2[C@H](COC[C@H](O)CN2S(=O)(=O)c2cccc(Cl)c2)O1)N1CCOCC1
    -2.6 | 80.8 | -6.2 | -0.9 | -0.1 | -5.8
- CC(C)C#Cc1ccc([C@@H]2[C@H]3CN(C(=O)Nc4ccccc4)CCCCN3[C@H]2CO)cc1
    0.8 | 10.2 | -6.8 | / | -0.3 | /
- COc1ccc(S(=O)(=O)N2CCCCC2)cc1C(C)C
    8.4 | 2.4 | -3.2 | 112.8* | / | 7.5
- C[C@H](CO)N1C[C@H](C)[C@@H](CN(C)C)Oc2ccc(NC(=O)c3ccncc3)cc2C1=O
    -8.2 | -1.7 | 2.8 | 2.9 | / | 2.3
- CCN(C(=O)c1nn(-c2ccc(OC)cc2)c(=O)c2c1c1ccccc1n2C)c1ccc(OC)cc1
    -3.4 | 14.6 | 10.4 | 107.2* | / | 0.6
- CCCN(C)C[C@H]1OCCCC[C@@H](C)Oc2ccc(NS(=O)(=O)c3ccc(OC)cc3)cc2C(=O)N([C@@H](C)CO)C[C@H]1C
    / | / | -17.4 | -14.1 | -0.1 | -1.9
- COc1ccc(OC)c(N=c2oc3c(OC)cccc3cc2C(=O)NCc2ccco2)c1
    4.1 | 1.4 | -12.8 | 14.7 | / | 11.0
- COc1ccccc1N=c1oc2c(OC)cccc2cc1C(=O)NCc1ccco1
    6.5 | -13.6 | 13.6 | 12.4 | / | 52.2*
- COCC(=O)N1CC2(C1)[C@@H](c1ccc(-c3ccc(F)cc3)cc1)[C@H](CO)N2C(C)=O
    / | / | / | / | -0.1 | /
- O=[N+]([O-])c1cc(/C=N/O)ccc1Sc1ccccc1
    -0.2 | -4.1 | -9.7 | 171.1* | / | 4.6
- O=[N+]([O-])c1cc(/C=N/O)ccc1SCc1ccccc1
    5.1 | -20.4 | / | 2.4 | -1.1 | 16.6
- CO/N=C/c1ccc(Sc2ccccc2)c([N+](=O)[O-])c1
    -3.3 | -7.3 | / | 1.8 | / | -11.4
- CO/N=C/c1ccc(Sc2ccccc2N)c([N+](=O)[O-])c1
    0.9 | -12.4 | -3.5 | 127.9* | / | -2.2
- CN(C)C(=O)C[C@H]1CC[C@H]2[C@@H](COc3ccc(NC(=O)C4CCC4)cc3C(=O)N2C)O1
    / | / | -1.8 | / | 0.1 | /
- Cc1cc(C)c(S(=O)(=O)N2CCN=C2c2ccccc2)cc1C
    9.6 | -7.9 | -4.6 | 98.8* | / | -3.8
- COc1cc(C)c(S(=O)(=O)N2CCN=C2c2ccccc2)cc1C
    / | / | 0.7 | / | 1.2 | /
- N=c1sccn1CC(=O)Nc1ccccc1Sc1ccccc1
    / | / | 72.9* | -5.4 | / | 0.1
- O=C(CN1CCOCC1)Nc1ccccc1Sc1ccccc1
    / | / | 16.9 | 5.3 | 0.1 | -9.6
- Cc1ccc(OC(=O)COc2ccccc2)c(-n2nc3ccccc3n2)c1
    2.0 | -20.5 | 0.6 | / | / | /
- Cc1ccc(OC(=O)c2cccc([N+](=O)[O-])c2)c(-n2nc3ccccc3n2)c1
    / | / | -15.3 | -1.3 | / | 84.5*
- COc1cccc(NC(=O)N[C@@H]2C=C[C@H](CC(=O)Nc3ccccc3)O[C@H]2CO)c1
    3.4 | 1.4 | 1.5 | -5.4 | -0.2 | -0.5
- CC(C)CC1(C)NC(=O)NC1=O (configuration not stated)
    2.6 | -8.6 | -8.6 | 116.7* | / | -4.1
- C[C@@H]1CN([C@H](C)CO)S(=O)(=O)c2ccc(-c3cccnc3)cc2O[C@@H]1CN(C)C(=O)c1cccc(F)c1
    0.5 | 14.2 | 8.7 | -13.2 | -0.1 | -6.5
- CC(C)NC(=O)N(C)C[C@H]1Oc2cc(C#CCN(C)C)ccc2S(=O)(=O)N([C@@H](C)CO)C[C@@H]1C
    0.0 | -6.5 | 4.6 | -10.4 | 0.0 | -3.9
- COc1ccc(C(=O)N/N=C/c2ccc(OC)c(CSc3ccccn3)c2)cc1
    / | / | 1.6 | / | / | /
- COc1ccc(/C=N/NC(=O)c2ccn[nH]2)cc1CSc1ccccn1
    1.2 | -17.1 | -14.2 | 4.7 | / | 44.9*
- CCOc1ccc(S(=O)(=O)c2c(C(=O)c3ccc(C)cc3)cnc3cc4c(cc23)OCCO4)cc1
    -2.8 | -15.8 | 9.6 | / | / | /
- Cc1ccc(C(=O)c2cnc3cc4c(cc3c2S(=O)(=O)c2ccccc2)OCCO4)cc1
    -4.9 | -6.7 | 7.3 | 23.5 | 1.0 | 117.7*
- COc1ccc(-c2ccc(C(=O)NCc3cccs3)c3occc23)c(C)c1
    4.1 | -1.3 | -5.7 | -18.7 | 0.1 | 72.0*
- COc1ccc(-c2coc3c(C(=O)NCc4cccs4)cccc23)c(C)c1
    3.6 | -3.0 | -31.6 | 6.0 | -0.4 | -3.8
- COCC(=O)N1CC2(CN(Cc3ccccc3)C2)c2c(n(C)c3cc(OC)ccc23)[C@@H]1CO
    / | / | 3.8 | / | -0.3 | /
- C=C1CCN(c2ccc(C(=O)NCc3ccc(C)cc3)cc2[N+](=O)[O-])CC1
    -4.7 | -13.3 | -2.8 | 120.4* | / | 14.0
- COc1ccc(-c2cc(C(F)(F)F)nc(SCCC(=O)N3CCN(C)CC3)n2)cc1
    / | / | 0.3 | / | 0.2 | /
- COc1ccc(-c2cc(C(F)(F)F)nc(SCC(N)=O)n2)cc1
    -4.8 | -1.8 | -2.1 | -59.9 | / | 50.6*
- CCOC(=O)N1CCN(c2c(N3CCN(c4ccc(OC)cc4)CC3)c(=O)c2=O)CC1
    / | 13.1 | 6.8 | -1.3 | -1.4 | -3.4
- CCOC(=O)N1CCN(c2c(N3CCOCC3)c(=O)c2=O)CC1
    -1.7 | -10.7 | 5.1 | -7.4 | 203.5* | -3.0
